Reference: US20100166855A1, “ORAL INSULIN COMPOSITION AND METHODS OF MAKING AND USING THEREOF” (priority 2003, published 2010)

Conditions: mouse; 14th day after intermuscular injection; implant of crystallized dextran microparticles

## FITC-dextran
  release of macromolecules from implant into muscle tissue: slow release
